The values below are quoted from earlier work in patent US20050154030A1, “Antimicrobial composition” (Microban Products Company, priority 2003, published 2005).

For this data set the following is noted: commercial form, approximately 95% active.

Regarding “N-alkyl dimethylbenzyl ammonium saccharinate [ONYXIDE™ 3300]”, the solubility in water result is on record as “insoluble in water”.
